Earlier results, collected in patent publication US5039528A, “EAA antagonists as anti-emetic drugs” (priority 1989, dated 1991).

Tested on: neurons
Conditions: Ser. No. 424,548; cited from earlier work

CCN(CC)CCOC(=O)C(O)(c1ccccc1)c1ccccc1
reduction of the neurotoxicity of NMDA antagonists that penetrate the BBB: effective in reducing the neurotoxicity
